One molecule from ChEMBL document CHEMBL4364283 (J Med Chem, 2019) can be followed below.

By UniProt entry, the sequences of proteins in these tests, tags left out.
UniProt O00255, whole entry: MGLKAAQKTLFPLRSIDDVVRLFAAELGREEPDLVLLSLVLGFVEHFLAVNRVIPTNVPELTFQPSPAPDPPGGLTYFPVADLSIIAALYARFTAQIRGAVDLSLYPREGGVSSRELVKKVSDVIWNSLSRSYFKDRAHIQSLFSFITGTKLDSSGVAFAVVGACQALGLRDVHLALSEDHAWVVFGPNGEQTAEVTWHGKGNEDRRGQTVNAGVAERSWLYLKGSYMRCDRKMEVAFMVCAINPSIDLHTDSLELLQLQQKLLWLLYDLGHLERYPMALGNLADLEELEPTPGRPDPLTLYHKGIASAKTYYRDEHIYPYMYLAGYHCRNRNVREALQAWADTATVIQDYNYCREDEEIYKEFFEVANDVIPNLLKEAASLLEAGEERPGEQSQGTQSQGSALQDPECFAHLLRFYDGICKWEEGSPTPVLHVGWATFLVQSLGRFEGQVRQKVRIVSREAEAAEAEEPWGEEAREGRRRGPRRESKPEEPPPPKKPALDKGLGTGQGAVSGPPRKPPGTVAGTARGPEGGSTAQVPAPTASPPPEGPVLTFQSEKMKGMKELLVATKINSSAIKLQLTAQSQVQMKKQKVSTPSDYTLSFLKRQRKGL

The structures appear in SMILES notation.

The assay concerns the target Menin (Homo sapiens, UniProt O00255). Description: Inhibition of FAM-probe binding to Menin (unknown origin) after 60 mins by fluorescence polarization competitive binding assay.

As usually defined, the Ki is a dissociation constant, usually derived from enzyme kinetics or from competition with a known ligand. Low values mean a stronger hold on the target, high ones a looser hold on the target. The molecule `N#Cc1ccc(OCCCN2CCC(C3(C4CCCC4)NCCc4ccccc43)CC2)cc1` (stereo unspecified) gave a Ki of 22 nM. In other words, the double-digit nanomolar range.
